The entries are a selection whose mix differs from that of the whole data set. Some structures show a salt or complex split into parts, the way the source records it. Calls of active or inactive are those of the source.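 The calls were made as follows: active = GFP/RFP ratio change of at least 30% with cell ATP level not reduced by more than half and red fluorescence within 50% of control; inactive = the rest, inconclusive results apart.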
Each compound was assayed against Matrix metalloproteinase-14 (Homo sapiens) (UniProt P50281) (assay: MT1-MMP activation inhibitors, cellular reporter – HT1080 RFP-PRO-GFP cells, GFP/RFP fluorescence, primary screen (AID 651647)). Settings: overnight, at 20 µM, active compounds read high, percent of plate control window, DMSO zero.
Method in brief: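 Assay system: HT1080 RFP-PRO-GFP cells | Dosing: 20 µM single dose, 1% DMSO | Incubation: Cells overnight before dosing, compound overnight, 37 °C, 5% CO2 | Evaluation: GFP/RFP fluorescence ratio | Control set: DMSO-only wells and HT1080 RFP-L50D-GFP cell wells as references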

Question: With O=[N+]([O-])c1cc([N+](=O)[O-])c(C(F)(F)F)c([N+](=O)[O-])c1O as the compound, how does the GFP/RFP ratio change read?
Answer: inactive: 2.54%

Question: Which GFP/RFP ratio change does the source give for Cc1ccccc1NP(C)(=O)Nc1ccccc1C here?
Answer: inactive: 0.879%

Question: Which GFP/RFP ratio change does the source give for CP(=O)(Nc1ccc2c(c1)OCCO2)Oc1ccccc1 (stereo not drawn) here?
Answer: inactive: -2.61%

Question: How did the GFP/RFP ratio change turn out when CCOP(C)(=S)SCC(=O)NC(C)(CC)C(=O)O (stereo not drawn) was run?
Answer: inactive: 2.34%

Question: Which GFP/RFP ratio change does the source give for CP(=O)(Nc1ccc(SC(F)(F)F)cc1)Oc1ccc(F)cc1 (stereo not drawn) here?
Answer: inactive: 6.38%

Question: How did the GFP/RFP ratio change turn out when Cc1c(C(c2ccc3c(c2)OCO3)c2c(C)n(C)n(-c3ccccc3)c2=O)c(=O)n(-c2ccccc2)n1C.O=[N+]([O-])c1cc([N+](=O)[O-])c(O)c([N+](=O)[O-])c1 was run?
Answer: inactive: 2.02%

Question: Cc1cc(-c2cccc3ccccc23)c(C)cn1.O=[N+]([O-])c1cc([N+](=O)[O-])c(O)c([N+](=O)[O-])c1 was tested. Which GFP/RFP ratio change did it give?
Answer: inactive: -5.17%

Question: O=[N+]([O-])c1cc([N+](=O)[O-])c(NCC2CCS(=O)(=O)C2)c([N+](=O)[O-])c1 (stereo not drawn) was tested. Which GFP/RFP ratio change did it give?
Answer: inactive: -13.4%

Question: With O=[N+]([O-])c1ccc(OP2(=O)COCCO2)cc1 (stereo not drawn) as the compound, how does the GFP/RFP ratio change read?
Answer: inactive: 2%

Question: With COc1ccc(NP(C)(=O)Oc2ccccc2OC)cc1 (stereo not drawn) as the compound, how does the GFP/RFP ratio change read?
Answer: inactive: 1.17%

Question: For CN(C)CCOC(=O)C(O)(c1ccccc1)C1CCCCC1 (stereo not drawn), which GFP/RFP ratio change is on record?
Answer: inactive: -5.09%

Question: For COc1ccc(OP(C)(=O)Nc2cccc(Br)c2)cc1 (stereo not drawn), which GFP/RFP ratio change is on record?
Answer: inactive: 2.54%

Question: How did the GFP/RFP ratio change turn out when CCCCCOc1ccc(NP(C)(=O)Oc2ccc(Cl)cc2Cl)cc1 (stereo not drawn) was run?
Answer: inactive: -0.69%

Question: With O=[N+]([O-])c1cc([N+](=O)[O-])c(OC2CCCCC2O)c([N+](=O)[O-])c1 (stereo not drawn) as the compound, how does the GFP/RFP ratio change read?
Answer: inactive: 6.33%

Question: CP(=O)(Nc1ccccc1)Oc1ccc(F)cc1 (stereo not drawn) was tested. Which GFP/RFP ratio change did it give?
Answer: inactive: -4.07%

Question: CCN(CC)CCCOC(=O)C(O)(c1ccccc1)C1CCCCC1 (stereo not drawn) was tested. Which GFP/RFP ratio change did it give?
Answer: inactive: -0.55%

Question: With Cc1c([N+](=O)[O-])cc([N+](=O)[O-])c(Br)c1[N+](=O)[O-] as the compound, how does the GFP/RFP ratio change read?
Answer: inactive: -2.05%

Question: With COc1ccc(OP(C)(=O)Nc2ccc(SC(F)(F)F)cc2)cc1 (stereo not drawn) as the compound, how does the GFP/RFP ratio change read?
Answer: inactive: 0.466%

Question: Which GFP/RFP ratio change does the source give for CCOC(=O)c1ccc(NP(C)(=O)Oc2ccc(F)cc2)cc1 (stereo not drawn) here?
Answer: inactive: 2.81%

Question: Which GFP/RFP ratio change does the source give for CCN(CC)CCCNc1ccccc1[N+](=O)[O-].O=[N+]([O-])c1cc([N+](=O)[O-])c(O)c([N+](=O)[O-])c1 here?
Answer: inactive: 12.6%

Question: With COc1ccc2c(c1O)-c1c(O)c(OC)cc3c1[C@H](C2)[N+](C)(C)CC3.O=[N+]([O-])c1cc([N+](=O)[O-])c([O-])c([N+](=O)[O-])c1[O-] as the compound, how does the GFP/RFP ratio change read?
Answer: inactive: 2.13%

Question: For O=C(OCCN1CCN(CCOCc2ccccc2)CC1)C(O)(c1ccccc1)c1ccccc1, which GFP/RFP ratio change is on record?
Answer: inactive: 3.42%

Question: CC(C)c1ccc(OP(C)(=O)Nc2ccc(SC(F)(F)F)cc2)cc1 (stereo not drawn) was tested. Which GFP/RFP ratio change did it give?
Answer: inactive: 2.86%

Question: CP(=O)(Nc1ccccc1F)Oc1ccccc1 (stereo not drawn) was tested. Which GFP/RFP ratio change did it give?
Answer: inactive: -1.1%

Question: With O=[N+]([O-])c1cc([N+](=O)[O-])c(Nc2ccc(Cl)cc2)c([N+](=O)[O-])c1 as the compound, how does the GFP/RFP ratio change read?
Answer: inactive: 6.48%

Question: CCc1ccc(OP(C)(=O)O)cc1 was tested. Which GFP/RFP ratio change did it give?
Answer: inactive: 0.773%

Question: For CP(=O)(Nc1ccccn1)Oc1ccccc1 (stereo not drawn), which GFP/RFP ratio change is on record?
Answer: inactive: -3.65%

Question: For COc1ccccc1OP(C)(=O)Nc1ccc(C)cc1C (stereo not drawn), which GFP/RFP ratio change is on record?
Answer: inactive: 5.87%

Question: O=[N+]([O-])c1cc([N+](=O)[O-])c(Nc2ccccn2)c([N+](=O)[O-])c1 was tested. Which GFP/RFP ratio change did it give?
Answer: inactive: 22.2%

Question: For Cc1c(NP(C)(=O)Oc2ccc(C(C)C)cc2)c(=O)n(-c2ccccc2)n1C (stereo not drawn), which GFP/RFP ratio change is on record?
Answer: inactive: -1.83%

Question: With CN(C)CCOC(=O)C(O)(c1ccccc1)C1CCCC1 (stereo not drawn) as the compound, how does the GFP/RFP ratio change read?
Answer: inactive: 7.15%

Question: COc1ccc(OP(C)(=O)Nc2ccccn2)cc1 (stereo not drawn) was tested. Which GFP/RFP ratio change did it give?
Answer: inactive: -0.103%

Question: How did the GFP/RFP ratio change turn out when COc1ccccc1OP(C)(=O)Nc1ccc(Br)cc1 (stereo not drawn) was run?
Answer: inactive: -1.38%

Question: With CP(=O)(OCCOc1ccccc1)OCCOc1ccccc1 as the compound, how does the GFP/RFP ratio change read?
Answer: inactive: -1.35%

Question: Which GFP/RFP ratio change does the source give for CCCCCCCCCCCCCCCC1C[N+](C)(C)CCOP(C)(=O)O1 (stereo not drawn) here?
Answer: inactive: -9.56%

Question: CP(=O)(Nc1ccc(Cl)cc1Cl)Oc1ccccc1 (stereo not drawn) was tested. Which GFP/RFP ratio change did it give?
Answer: inactive: 0.573%

Question: COc1ccc(OP(C)(=O)Nc2ccccc2Br)cc1 (stereo not drawn) was tested. Which GFP/RFP ratio change did it give?
Answer: inactive: -0.145%

Question: Which GFP/RFP ratio change does the source give for COc1ccccc1OP(C)(=O)Nc1ccc(C)c(C)c1 (stereo not drawn) here?
Answer: inactive: -0.186%

Question: With O=C1C(O)=C([N+](=O)[O-])C(=O)C(O)=C1[N+](=O)[O-] as the compound, how does the GFP/RFP ratio change read?
Answer: inactive: 2.96%

Question: Which GFP/RFP ratio change does the source give for Cc1cc(C)cc(OP(C)(=O)Nc2cccc(C(F)(F)F)c2)c1 (stereo not drawn) here?
Answer: inactive: 2.82%

Question: With CP(=O)(OC12CC3CC(CC(C3)C1)C2)OC12CC3CC(CC(C3)C1)C2 as the compound, how does the GFP/RFP ratio change read?
Answer: inactive: -8.48%

Question: For CCOC(=O)c1ccc(NP(C)(=O)Oc2ccc(Cl)cc2)cc1 (stereo not drawn), which GFP/RFP ratio change is on record?
Answer: inactive: -0.635%

Question: For CP(=O)(Nc1ccc(Cl)cc1)Oc1ccc(F)cc1 (stereo not drawn), which GFP/RFP ratio change is on record?
Answer: inactive: 1.25%

Question: CC(C)(C)c1ccc(OP(C)(=O)O)cc1 was tested. Which GFP/RFP ratio change did it give?
Answer: inactive: -0.725%

Question: Which GFP/RFP ratio change does the source give for COc1ccccc1OP(C)(=O)Nc1ccccc1Br (stereo not drawn) here?
Answer: inactive: 0.0357%

Question: For CP(=O)(Oc1ccccc1)N1CCOC1=O (stereo not drawn), which GFP/RFP ratio change is on record?
Answer: inactive: -3.43%

Question: CCc1ccc(OP(C)(=O)Nc2cccnc2)cc1 (stereo not drawn) was tested. Which GFP/RFP ratio change did it give?
Answer: inactive: -1.76%

Question: How did the GFP/RFP ratio change turn out when COc1ccccc1OP(C)(=O)Nc1c(C)n(C)n(-c2ccccc2)c1=O (stereo not drawn) was run?
Answer: inactive: -5.06%

Question: For O=C(OCCCN1CCCC1)C(O)(c1ccccc1)C1CCCCC1 (stereo not drawn), which GFP/RFP ratio change is on record?
Answer: inactive: 1.51%

Question: Which GFP/RFP ratio change does the source give for CCN(CC)CC(O)COC(=O)C(O)(c1ccccc1)C1CCCCC1 (stereo not drawn) here?
Answer: inactive: -2.61%

Question: With COc1ccc(OP(C)(=O)Nc2ccc(Br)cc2)cc1 (stereo not drawn) as the compound, how does the GFP/RFP ratio change read?
Answer: inactive: 10.7%

Question: Which GFP/RFP ratio change does the source give for CP(=O)(Nc1ccccn1)Oc1ccc(Cl)cc1 (stereo not drawn) here?
Answer: inactive: -0.454%

Question: Which GFP/RFP ratio change does the source give for CCOP(C)(=S)SCC(=O)NC(C)C(=O)O (stereo not drawn) here?
Answer: inactive: -0.468%

Question: For CCOC(=O)c1ccc(NP(C)(=O)Oc2ccc(OC)cc2)cc1 (stereo not drawn), which GFP/RFP ratio change is on record?
Answer: inactive: 4.51%

Question: With O=[N+]([O-])c1cc([N+](=O)[O-])c(O)c([N+](=O)[O-])c1.c1ccc(Oc2ccncc2)cc1 as the compound, how does the GFP/RFP ratio change read?
Answer: inactive: 0.833%

Question: CCc1ccc(OP(C)(=O)N2CCN(c3ccc([N+](=O)[O-])cc3)CC2)cc1 (stereo not drawn) was tested. Which GFP/RFP ratio change did it give?
Answer: inactive: -0.606%

Question: CP(=O)(NC(=O)Nc1ccccc1)Oc1ccccc1 (stereo not drawn) was tested. Which GFP/RFP ratio change did it give?
Answer: inactive: -1.81%

Question: With Cc1cc(C)cc(OP(C)(=O)Nc2ccc(SC(F)(F)F)cc2)c1 (stereo not drawn) as the compound, how does the GFP/RFP ratio change read?
Answer: inactive: -5.26%

Reference: PubChem BioAssay AID651647 (Sanford-Burnham Center for Chemical Genomics, 2012)
